Results: US4483989A, “Synthesis of pyrido[4,3-b]carbazole derivatives” (priority 1973, dated 1984)

Details: mouse, in vivo, ip
Source text: The mice were randomized in each experimental series. A first routine experiment enable the death rate by toxicity to be determined and thus established the sublethal doses.
To evaluate the therapeutic activity of the compounds of the invention, doses of said compound were expressed basing them on the 30 days sublethal dose which was fixed at 1.

9-hydroxy-2(β-diisopropylamino-ethyl)-ellipticiniu acetate
DLo (I.P.): 10 mg/kg
